# Laboratory results published in ChEMBL document CHEMBL4513141, “CO-ADD screening of NIH (USA) - Clinical Collection” (2021).
# For part of these data: What follows is the remainder of the data, with few or none of the strong results. Entries with a potency or affinity are not part of this list. The list shows a part of the results, in another mix than the full data.
# Columns and labels:
# Klebsiella pneumoniae = settings: Concentration 20 uM; ASSAY_TEST Inhibition of Bacterial Growth; detection method Absorption (OD600); MEDIA CAMHB; plate type 384well; NBS; CORNING #3640; time 18 hr
# Candida albicans = settings: 20 µM
# Cryptococcus neoformans = settings: Concentration 20 uM; ASSAY_TEST Inhibition of Fungal Growth; detection method Resazurin; Absorption (OD600-OD570); plate type 384well; NBS; CORNING #3640
compound,measurement,setting,value
COc1ccc(C[C@H](C)NC[C@@H](O)c2ccc(O)c(NC=O)c2)cc1.O.O.O=C(O)/C=C/C(=O)O,Inhibition,Klebsiella pneumoniae,16.2%
same,Inhibition,Candida albicans,3.55%
same,Inhibition,Cryptococcus neoformans,-7.84%
